From PubChem BioAssay AID2112 (National Center for Advancing Translational Sciences (NCATS), 2009)
The list shows a part of the results, in another mix than the full data. The source made the active and inactive calls. Calls come from the whole dose curve; as a rule, active = well fitted inhibition curve with a large enough effect; inconclusive = small, poorly fitted or top-dose-only effect, or effect the other way, or another doubt; inactive = no such curve, though single readings can be large or run the other way.

Biological target: Lysosomal alpha-glucosidase (Homo sapiens) (UniProt P10253)
Assay: qHTS Assay for Inhibitors and Activators of Human alpha-Glucosidase From Spleen Homogenate;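 note: 0% = enzyme with vehicle and -100% = no enzyme basal signal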
Details: 4-MU-alpha-glucoside fluorescence; at 79.9 µM (top of the series) unless noted
Excerpt: NIH Chemical Genomics Center [NCGC] NIH Molecular Libraries Probe Production Centers Network [MLPCN] MLPCN Grant: R03 MH084841-01 Assay Submitter (PI): Wei Zheng NCGC Assay Overview: Alpha-glucosidase is responsible for the hydrolysis of terminal, non-reducing 1,4-linked alpha-D-glucose residues, which releases alpha-D-glucose. It is a lysosomal hydrolase that is required for the degradation of a small percentage (1-3%) of cellular glycogen in humans. Deficiency of this enzyme results in glycogen-storage disease type II (GSDII), also referred to as Pompe disease, an autosomal recessive disorder. Structurally normal glycogen is accumulated in the lysosomes and cytoplasm in affected patients, primarily in muscle tissues. Excessive glycogen storage within lysosomes may interrupt normal functioning of other organelles and leads to cellular injury. In turn, this leads to enlargement and dysfunction of the entire organ involved (eg: cardiomyopathy and muscle weakness). It has been reported that the improper folding and trafficking of alpha-glucosidase resulting from genetic mutations may account for a significant number of Pompe patients. […] We optimized this alpha-glucosidase assay in 1536-well plate format for identification of novel small molecule inhibitors or activators with structures other than the sugar analogs in order to develop new pharmacological chaperones. In particular, this assay is directed towards discovering compounds active in a more natural setting, tissue homogenate, that may have been missed by screens of the purified enzyme under more stringent conditions.
NCGC Assay Protocol Summary: This is a fluorogenic enzyme assay with 4-methylumbelliferyl-alpha-D-glucopyranoside as the substrate and human spleen homogenate containing alpha-glucosidase as the enzyme preparation. Upon hydrolysis of this fluorogenic substrate, the resulting product, 4-methylumbelliferone (which excites at 365 nm and emits at 440 nm) can be detected by a fluorescence plate reader. Data were normalized to the controls for basal activity (without enzyme) and 100% activity (with enzyme). The AC50 values were determined from concentration-response data modeled with the standard Hill equation. Assay buffer: 50 mM citric acid (titrated with potassium phosphate to pH 5.0), 0.01% Tween-20 (pH 5.0 is an optimal condition for this enzyme assay) 1536-well assay protocol for the alpha-glucosidase from human spleen homogenate: (1) Add 2 ul/well spleen homogenate (1 ug) (2) Add 23 nL compounds in DMSO solution. The final titration was 0.5 nM to 58 uM. (3) Add 2 ul of substrate (1 mM final) (4) Incubate at 37 C for 40 min (5) Add 2 ul stop solution (1M NaOH and 1M Glycine mixture, pH 10) (6) Detect the assay plate in a ViewLux plate reader (PerkinElmer) with Ex=365 nm and Em=440nm. Keywords: Alpha-glucosidase, Pompe Disease, pharmacological chaperone, chaperone therapy, high throughput screening, alpha-glucosidase inhibitor, MLSMR, MLSCN, NIH Roadmap, qHTS and NCGC

SMILES	activity change, negative = inhibition
C/C1=C2N=C(/C=C3N=C(/C(C)=C4\[N-][C@@](C)([C@H]5N=C1[C@@](C)(CCC(=O)NC[C@H](C)OP(=O)([O-])O[C@@H]1[C@H](O)[C@H](n6cnc7cc(C)c(C)cc76)O[C@@H]1CO)[C@@H]5CC(N)=O)[C@](C)(CC(N)=O)[C@H]4CCC(N)=O)[C@@](C)(CC(N)=O)[C@@H]\3CCC(N)=O)C(C)(C)[C@@H]/2CCC(N)=O.[C-]#N.[Co+3]	inactive: 5.6% [at 29.1 µM]
CP(=O)(OC12CC3CC(CC(C3)C1)C2)OC12CC3CC(CC(C3)C1)C2	inactive: -1.12%
CCOC(=O)c1ccc(NP(C)(=O)Oc2ccc(Cl)cc2)cc1 (configuration not stated)	inactive: -1.03%
CN(C)C(=O)c1c([N+](=O)[O-])cc([N+](=O)[O-])cc1[N+](=O)[O-]	inactive: -1.6%
CP(=O)(Nc1ccc(Cl)cc1)Oc1ccc(F)cc1 (configuration not stated)	inactive: 1.82%
CC(C)(C)c1ccc(OP(C)(=O)O)cc1	inactive: 4.1%
COc1ccccc1OP(C)(=O)Nc1ccccc1Br (configuration not stated)	inactive: 1.81%
CP(=O)(Oc1ccccc1)N1CCOC1=O (configuration not stated)	inactive: -1.62%
CCc1ccc(OP(C)(=O)Nc2cccnc2)cc1 (configuration not stated)	inactive: 1.12%
COc1ccccc1OP(C)(=O)Nc1c(C)n(C)n(-c2ccccc2)c1=O (configuration not stated)	inactive: 4.11%
OCCSCCO	inactive: 0.556%
O=C(OCCCN1CCCC1)C(O)(c1ccccc1)C1CCCCC1 (configuration not stated)	inactive: -17.1%
CCN(CC)CC(O)COC(=O)C(O)(c1ccccc1)C1CCCCC1 (configuration not stated)	inactive: -6.72%
COc1ccc(OP(C)(=O)Nc2ccc(Br)cc2)cc1 (configuration not stated)	inactive: -5.01%
CCc1ccc(OP(C)(=O)O)cc1	inactive: -1.37%
CP(=O)(Nc1ccccn1)Oc1ccccc1 (configuration not stated)	inactive: -9%
COc1ccccc1OP(C)(=O)Nc1ccc(C)cc1C (configuration not stated)	inactive: -7.17%
O=[N+]([O-])c1cc([N+](=O)[O-])c(Nc2ccccn2)c([N+](=O)[O-])c1	inactive: -17.5%
Cc1c(NP(C)(=O)Oc2ccc(C(C)C)cc2)c(=O)n(-c2ccccc2)n1C (configuration not stated)	inactive: 1.91%
CN(C)CCOC(=O)C(O)(c1ccccc1)C1CCCC1 (configuration not stated)	inactive: -28.1%
COc1ccc(OP(C)(=O)Nc2ccccn2)cc1 (configuration not stated)	inactive: 2.45%
COc1ccccc1OP(C)(=O)Nc1ccc(Br)cc1 (configuration not stated)	inactive: -0.59%
CP(=O)(OCCOc1ccccc1)OCCOc1ccccc1	inactive: 3.7%
CP(=O)(Nc1ccc(Cl)cc1Cl)Oc1ccccc1 (configuration not stated)	inactive: 1.29%

SMILES	activity change, negative = inhibition
Cc1nc2ccc3ccccc3c2o1.O=[N+]([O-])c1cc([N+](=O)[O-])c(O)c([N+](=O)[O-])c1	inactive: -12.7%
COc1ccc(OP(C)(=O)Nc2ccccc2Br)cc1 (configuration not stated)	inactive: -7.12%
COc1ccccc1OP(C)(=O)Nc1ccc(C)c(C)c1 (configuration not stated)	inactive: 1.89%
Cc1cc(C)cc(OP(C)(=O)Nc2cccc(C(F)(F)F)c2)c1 (configuration not stated)	inactive: -0.933%
CCCCCOc1ccc(NP(C)(=O)Oc2ccc(Cl)cc2Cl)cc1 (configuration not stated)	inactive: 4.33%
CP(=O)(Nc1ccccc1)Oc1ccc(F)cc1 (configuration not stated)	inactive: -3.34%
CCN(CC)CCCOC(=O)C(O)(c1ccccc1)C1CCCCC1 (configuration not stated)	inactive: -8.97%
COc1ccc(OP(C)(=O)Nc2ccc(SC(F)(F)F)cc2)cc1 (configuration not stated)	inactive: 0.0173%
CCOC(=O)c1ccc(NP(C)(=O)Oc2ccc(F)cc2)cc1 (configuration not stated)	inactive: 2.47%
CCC(C)(OO)OOC(C)(CC)OO (configuration not stated)	inactive: -1.67%
Cc1cccc([N+](=O)[O-])c1[N+](=O)[O-]	inactive: -2.95%
O=C(OCCN1CCN(CCOCc2ccccc2)CC1)C(O)(c1ccccc1)c1ccccc1	inactive: -5.11%
CC(C)c1ccc(OP(C)(=O)Nc2ccc(SC(F)(F)F)cc2)cc1 (configuration not stated)	inactive: -3.67%
CP(=O)(Nc1ccccc1F)Oc1ccccc1 (configuration not stated)	inactive: -2.11%
CCN(CCCl)Cc1ccccc1C	inactive: 4.59%
Cc1ccccc1NP(C)(=O)Nc1ccccc1C	inactive: -3.38%
[NH4+].[O-][Cl+3]([O-])([O-])[O-]	inactive: 8.17%
CP(=O)(Nc1ccc2c(c1)OCCO2)Oc1ccccc1 (configuration not stated)	inactive: -4.78%
CCOP(=O)(CC)OCC	inactive: 2.54%
CCOP(C)(=S)SCC(=O)NC(C)(CC)C(=O)O (configuration not stated)	inactive: -4.85%
CP(=O)(Nc1ccc(SC(F)(F)F)cc1)Oc1ccc(F)cc1 (configuration not stated)	inactive: 3.7%
Cc1ccc([N+](=O)[O-])c([N+](=O)[O-])c1	inactive: -5.76%
Cc1c([N+](=O)[O-])cccc1[N+](=O)[O-]	inactive: 7.76%
